Laboratory results reported in publication PMC12216184 (Nature Communications, 2025).

How the values were obtained:
FOXO4^FH = experiment: 1H,15N HSQC NMR titration of 15N-labeled FOXO4^FH (CSP); format: binding, human; settings: 100 µM 15N-labeled FOXO4^FH, 1 or 2 equivalents of p53 fragment, 50 mM phosphate pH 7.5, 298 K
[1] = tested on: FOXO4^FH – p53^1–94 complex; experiment: NMR competition, displacement of FOXO4^FH from 15N-labeled p53^1–94 by DNA; format: binding, human; settings: 50 µM 15N-labeled p53^1–94, 100 µM FOXO4^FH, 50 µM CTDSP2
Experimental: All NMR spectra were recorded at 298 K either on a 700 MHz Bruker Avance III NMR spectrometer equipped with a TCI cryoprobe or on a 600 MHz Bruker Avance Neo NMR spectrometer equipped with a TXI 600S3 probehead at 298 K. All samples were in 50 mM NaH2PO4/Na2HPO4, pH 7.5 and 10 % D2O was added for the lock. Chemical shifts of the recombinant FOXO4-LRI were assigned using the following three-dimensional spectra: HNCACB, CBCA(CO)NH, (HN)N(CA)NNH, HN(NCA)NNH and (H)CC(CO)NH. […] Resonance assignments of FOXO4-LRI were submitted to the BRMB under the accession number 52458 (Supplementary Fig. 15).
Supplementary Figure 2. Characterization of FOXO4 - p53 interactions: (a) 1H,15N HSQC spectrum of 100 µM
15N-labeled FOXO4Cter in the absence (black) or in presence of one stoichiometric equivalent of unlabeled p531-94
(blue). (b) 1H,15N HSQC spectrum of 100 µM 15N-labeled FOXO4Nter in the absence (black) or presence of one
stoichiometric equivalent of unlabeled p531-94 (blue). (c) Overlay of 50 µM 15N-labeled FOXO4CR3 in the absence
50 µM 15N-labeled p531-94 in the absence (black) or presence of 100 µM FOXO4FH (orange) or 50 µM CTDSP2 and
(1 picture or pasted object on this page, not shown here)

[2] = molecular target: T1, FOXO4 forkhead domain (FOXO4^FH) (human, UniProt P98177 86-208); experiment: solution NMR structural model; settings: both partners purified
[3] = molecular target: T1, FOXO4 forkhead domain (FOXO4^FH); experiment: ITC; settings: both partners purified

p53^TAD1: p53 transactivation subdomain 1, residues 14-37
binding by NMR titration (CSPs) (FOXO4^FH): did not cause any changes

CTDSP2: DNA duplex, sense CCAGATAAACAACCCG, antisense CGGGTTGTTTATCTGG
displacement of FOXO4^FH from p53^1–94 by DNA [1]: can efficiently compete out FOXO4^FH from p53^1–94

p53^TAD2: p53 transactivation subdomain 2, residues 37-57
binding by NMR titration (CSPs) (FOXO4^FH): led to CSPs of ^1H,^15N cross-peaks of FOXO4^FH

SQAMDDLMLSPDDIEQWFTED (peptide, UniProt P04637 37-57, looked up) [p53^TAD2 (residues 37-57), recombinant]
binding result [2]: binds

B1: p53^TAD2 (residues 37-57), synthetic peptide (peptide, UniProt P04637 37-57, looked up)
peptide: SQAMDDLMLSPDDIEQWFTED
notes: human p53, residues 37-57 (TAD2); also called unphosphorylated p53^TAD2; source: synthetic peptide, bought: Peptide Specialty Laboratories GmbH
binding result [3]: binds
